## Apparent affinities of Ab-91 variants for a coronavirus HR2 peptide

All variants were tested on one target, the spike HR2 peptide PDVDLGDISGINAS (SARS-CoV-2).

Each scFv is VL, a 15-residue (Gly4Ser)3 linker, VH, as in the parent Ab-91, and differs from it in the CDRs of the heavy chain only.
VL: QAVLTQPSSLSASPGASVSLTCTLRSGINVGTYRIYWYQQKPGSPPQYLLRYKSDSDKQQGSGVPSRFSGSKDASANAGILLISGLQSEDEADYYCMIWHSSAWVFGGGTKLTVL
VH: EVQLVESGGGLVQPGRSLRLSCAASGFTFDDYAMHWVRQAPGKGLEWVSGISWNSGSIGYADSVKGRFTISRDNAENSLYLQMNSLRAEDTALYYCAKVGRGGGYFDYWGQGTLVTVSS

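The parent was found by panning a naive human phage display library on the peptide. AAYL51 was designed without a model: most single CDR substitutions and a random sample of double and triple ones. The assay is AlphaSeq: two haploid yeast populations carry antibody and antigen on their surface. Pairs that bind mate more often; barcode pairs of the diploids are counted by sequencing. A regression on co-assayed BCL2-family reference pairs converts the normalised counts of each replicate to an apparent Kd. The assay was run in three technical replicates.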

Substitutions are numbered in sequence along the VH above, starting at 1 (not Kabat).
The read-out is the apparent dissociation constant on a log10 scale (nM): the lower, the stronger.
The mean shown is taken over the replicates in which the pair was detected.
An entry "n.d." has no value in the source: the pair was not observed among the diploids in that replicate. This suggests poor binding but is not conclusive.
In this assay the parent's reference entry averaged 1.86; its copy inside this library read 0.88.

changes	replicates, log10 nM	mean log10 Kd (nM)	control signals
I51V/I58N	n.d. n.d. n.d.	n.d.	0/9
G50D/V99N/Y108C	n.d. n.d. n.d.	n.d.	2/9 (4.42)
G50M/S57Y/G103C	n.d. n.d. n.d.	n.d.	1/9 (3.27)
F27C/H35L/Y105I	5.16 n.d. n.d.	5.16	3/9 (4.39)
Y32R/S52I/S57F	n.d. n.d. n.d.	n.d.	0/9
F29G/I51Q/S57H	n.d. 3.70 n.d.	3.70	3/9 (4.78)
I51V/G100K	n.d. n.d. n.d.	n.d.	0/9
V64S/G102C/F106L	1.74 2.38 2.36	2.16	0/9
F27L/V99C/Y108I	6.35 4.75 4.89	5.33	4/9 (4.94)
F27H/S55Q/Y105G	n.d. 3.21 n.d.	3.21	1/9 (3.60)
G56W/Y105F/Y108C	1.87 2.01 1.51	1.80	4/9 (4.95)
G26V/R101E/G103F	4.84 n.d. n.d.	4.84	0/9
I58L/G102V/D107Q	5.85 n.d. n.d.	5.85	2/9 (3.75)
D30K/H35P/Y105T	n.d. n.d. 4.35	4.35	1/9 (5.00)
A33D/G50K/F106W	n.d. n.d. n.d.	n.d.	1/9 (4.48)
D30G/H35A/K65Y	n.d. 4.43 n.d.	4.43	5/9 (4.57)
T28Y/G100P/G104L	4.87 n.d. n.d.	4.87	1/9 (3.90)
F27L/A33M/W53R	6.61 5.18 n.d.	5.90	5/9 (4.83)
G59K/R101P/Y105A	n.d. n.d. n.d.	n.d.	0/9
T28W/G50L/S55Y	n.d. 3.28 n.d.	3.28	2/9 (3.34)
I58A/G59Y/G103H	n.d. n.d. n.d.	n.d.	2/9 (4.40)
D31T/I51W/D62R	n.d. n.d. n.d.	n.d.	0/9
W53T/G59N/G102Y	5.12 n.d. n.d.	5.12	2/9 (4.32)
T28P/G59L/Y108N	4.62 n.d. n.d.	4.62	4/9 (4.53)
A33S/S52I	n.d. n.d. n.d.	n.d.	1/9 (4.02)
D31F/W53Y/G100R	n.d. n.d. 4.78	4.78	1/9 (5.78)
F29W/D62Q/Y105C	n.d. n.d. n.d.	n.d.	0/9
I58R/K65A/Y105F	n.d. n.d. n.d.	n.d.	0/9
F27N/G56D/G104K	3.57 3.48 3.51	3.52	6/9 (4.80)
S55Y/G104H	n.d. 5.41 4.50	4.96	6/9 (4.77)
S52W/Y60W/A61P	n.d. n.d. n.d.	n.d.	0/9
D30W/H35W/F106V	n.d. n.d. n.d.	n.d.	1/9 (2.85)
F29M	n.d. n.d. 3.67	3.67	1/9 (4.11)

The last 2 entries again:

| changes | replicates, log10 nM | mean log10 Kd (nM) | control signals |
|---|---|---|---|
| D30W/H35W/F106V | n.d. n.d. n.d. | n.d. | 1/9 (2.85) |
| F29M | n.d. n.d. 3.67 | 3.67 | 1/9 (4.11) |

Nonspecific signal, from three strains lacking the peptide, appeared in 21% of pairings of library AAYL51, centred on 4.54 (5% of these signals below 3.26); values are not corrected for it. For each scFv, signals with the empty controls are counted beside the result, with their mean in brackets.

Source: Engelhart et al. 2022 (doi:10.1038/s41597-022-01779-4), MIT Lincoln Laboratory and A-Alpha Bio; data file from the FLAb repository.